The values that follow come from PubChem BioAssay AID2013 (Sanford-Burnham Center for Chemical Genomics, 2009).

Amino acid sequences for entries named in this document (tags omitted). A change or cut given only in a name is not applied to a line headed by its entry.
UniProt Q9Y2T6: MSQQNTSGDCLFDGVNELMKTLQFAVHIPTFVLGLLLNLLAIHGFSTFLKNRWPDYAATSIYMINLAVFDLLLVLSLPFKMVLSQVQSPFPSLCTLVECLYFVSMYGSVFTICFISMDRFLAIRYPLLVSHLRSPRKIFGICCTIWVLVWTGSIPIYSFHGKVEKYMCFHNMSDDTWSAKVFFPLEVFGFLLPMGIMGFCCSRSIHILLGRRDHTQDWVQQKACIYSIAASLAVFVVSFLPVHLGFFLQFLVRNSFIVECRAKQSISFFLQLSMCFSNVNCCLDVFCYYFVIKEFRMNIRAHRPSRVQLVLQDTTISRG

SMILES strings stand for the structures. Only a part is listed here, and it is no random draw. Entries with a potency or affinity are not part of this list. Activity calls are given as the source filed them.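 The calls were made as follows: active = spots per cell inhibited over 60%, with over 100 cells counted and total cytoplasm intensity under 500,000; inconclusive = wells with under 100 cells, flagged as likely toxic; inactive = the rest.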

As a reminder, the inhibition is the relative decrease from the control value, in per cent.

The assay has as its target G-protein coupled receptor 55 (Homo sapiens) (UniProt Q9Y2T6). Put plainly: inhibition of LPI-stimulated GPR55 beta-arrestin translocation – imaging, U2OS, beta-arrestin-GFP, LPI agonist, primary screen (AID 2013).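 Also: U2OS cells stably carrying GPR55 and arrestin-GFP stimulated by 5 µM LPI near EC80; imaged beta-arrestin-GFP aggregate spots per cell after agonist stimulation; plate controls were LPI-stimulated DMSO wells for no effect and DMSO wells without LPI for full effect.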 The settings on record: LPI antagonism, at 10 µM, hits give high values.
Regarding `CCCOP(=S)(Nc1nc(N)cc(=O)[nH]1)OCCC`, the inhibition is inactive: 5.6%.
On to `Nc1cccc2c([As](=O)(O)O)cccc12`, for which the inhibition is inactive: 13%.
With `Cc1ccc(NCCc2c([N+](=O)[O-])cc([N+](=O)[O-])cc2[N+](=O)[O-])cc1`, the inhibition was inactive: 3.6%.
In the case of `O=[As](O)(c1cccc(O)c1)c1cccc(O)c1`, the inhibition was inactive: 9.7%.
With `Cc1cccc(OCC(=O)OC2CN3CCC2CC3)c1` (stereo not drawn), the inhibition was inactive: 11.8%.
Then `CS(=O)(=O)c1ccc(Cl)c(NC(=O)COC(=O)C(O)(c2ccccc2)c2ccccc2)c1`, with inactive: 12.5%; and `COc1cc(C(=O)NCC2(N3CCOCC3)CCCCC2)cc(Cl)c1OC(C)C`, with inactive: 7.3%; and `O=[As](O)(O)c1cccnc1`, with inactive: 11.9%.
Turning to `O=C(OC1CN2CCC1CC2)c1ccc(Cl)cc1` (stereo not drawn), the inhibition is inactive: 2.1%.
With `O=[N+]([O-])c1ccc2c(c1)nnn2O`, the inhibition is inactive: 8.7%.
Turning to `CCOP1(=S)c2c(C)nn(CCC#N)c2N=C(c2ccc(F)cc2)N1C` (stereo not drawn), the inhibition was inactive: 2.8%.
In the case of `CN(C(=O)Cc1ccccc1)[C@@H]1CC[C@]2(CCCO2)C[C@H]1N1CCCC1`, the inhibition was inactive: 4.5%.
Then `NC(=O)Nc1ccc([As](=O)(O)O)cc1`, with inactive: 2.4%.
`Nc1ccccc1[As](=O)(O)c1ccccc1`: the inhibition was inactive: -7.2%.
As to `O=C(O)COc1ccc([As](=O)(O)O)cc1[N+](=O)[O-]`, the inhibition was inactive: -2.9%.
With `CS(=O)(=O)c1cc([N+](=O)[O-])c2no[n+]([O-])c2c1`, the inhibition is inactive: 9.6%.
For `O=P(Nc1nccs1)(c1ccccc1)c1nc2ccccc2s1` (stereo not drawn), the inhibition is inactive: -8.1%.
With `O=P(Nc1nccs1)(Oc1ccccc1)Oc1ccccc1`, the inhibition is inactive: -13.6%.
Turning to `CCOP1(=S)c2c(C)nn(CCC#N)c2N=C(c2ccccc2F)N1C` (stereo not drawn), the inhibition is inactive: 27.6%.
In the case of `O=P1(Nc2ccc(Br)cn2)COc2ccccc2OC1`, the inhibition is inactive: 5%.
For `O=[As](O)(c1cccs1)c1cccs1`, the inhibition is inactive: 1.7%.
As for `Cc1ccc(OCC(=O)OC2CN3CCC2CC3)cc1` (stereo not drawn), the inhibition is inactive: 1.8%.
In the case of `Nc1cccc([As](=O)(O)c2ccccc2)c1`, the inhibition was inactive: 5.8%.
Consider `O=P1(Nc2ncccn2)COc2ccccc2OC1`, for which the inhibition was inactive: -1.9%.
Regarding `O=C(/C=C/c1ccccc1)OC1CN2CCC1CC2` (stereo not drawn), the inhibition was inactive: 5.8%.
Consider `CN(C)C1(CNC(=O)c2ccc(S(C)(=O)=O)cc2)CCCCC1`, for which the inhibition was inactive: 4.5%.
Then `CC1CCC(C(C)C)C(OP(=O)(Nc2ccccn2)c2ccccc2)C1` (stereo not drawn), with inactive: 6.6%; and `Cc1ccc(C(=O)OC2CN3CCC2CC3)cc1` (stereo not drawn), with inactive: 2%; and `Cc1nn(-c2ccccc2)c2c1P(=O)(N1CCOCC1)N(C)C(c1ccccc1)=N2` (stereo not drawn), with inactive: 0.2%.
Regarding `O=[As](O)(c1ccccc1Br)c1ccccc1Br`, the inhibition is inactive: 6%.
For the molecule `CC(C)/C=N\N=C(\N)N[N+](=O)[O-]`, the inhibition is inactive: -5%.
The same measure for `CN(C(=O)Cc1ccc(Cl)c(Cl)c1)[C@@H]1CCCC[C@H]1N1CCCC1`: inactive: -2.3%; for `CC(C)(C)C(=O)NC(Sc1ncccn1)C(Cl)(Cl)Cl` (stereo not drawn): inactive: -6.2%; for `Clc1n[nH]nc1-c1nn[nH][15n]1`: inactive: 23.6%.
Turning to `CCOP(=O)(Nc1ccc(C)cn1)OCC`, the inhibition is inactive: -1.7%.
Regarding `CCOP(=O)(NC(=NC(C)c1ccccc1)NC(C)c1ccccc1)OCC` (stereo not drawn), the inhibition was inactive: 10.4%.
Turning to `O=P1(Nc2ccccn2)COc2ccccc2OC1`, the inhibition is inactive: -3.2%.
`CCC1=CC2Cc3nc4ccc(Cl)cc4c(N)c3C(C1)C2` (stereo not drawn): the inhibition was inactive: 10.7%.
